These results are taken from ChEMBL document CHEMBL5518210 (J Med Chem, 2024).

Protein sequences, listed by entry. Tags and fused reporters are not part of them.
UniProt Q16236, whole entry, looked up: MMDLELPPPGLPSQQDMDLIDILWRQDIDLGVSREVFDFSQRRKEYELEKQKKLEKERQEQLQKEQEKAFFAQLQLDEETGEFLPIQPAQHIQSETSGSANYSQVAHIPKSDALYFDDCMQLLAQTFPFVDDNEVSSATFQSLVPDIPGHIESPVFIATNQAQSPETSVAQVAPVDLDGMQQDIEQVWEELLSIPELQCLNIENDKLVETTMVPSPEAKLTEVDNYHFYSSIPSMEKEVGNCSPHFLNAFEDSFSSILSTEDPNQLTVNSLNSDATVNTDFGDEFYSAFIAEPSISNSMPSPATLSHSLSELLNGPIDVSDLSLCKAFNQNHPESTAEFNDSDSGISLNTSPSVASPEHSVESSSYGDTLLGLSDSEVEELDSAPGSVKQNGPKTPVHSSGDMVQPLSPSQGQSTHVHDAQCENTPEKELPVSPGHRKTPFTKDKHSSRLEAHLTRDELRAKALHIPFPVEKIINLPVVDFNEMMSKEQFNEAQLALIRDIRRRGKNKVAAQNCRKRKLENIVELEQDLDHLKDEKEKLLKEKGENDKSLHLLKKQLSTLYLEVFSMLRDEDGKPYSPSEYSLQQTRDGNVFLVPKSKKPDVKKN
UniProt Q14145, whole entry, looked up: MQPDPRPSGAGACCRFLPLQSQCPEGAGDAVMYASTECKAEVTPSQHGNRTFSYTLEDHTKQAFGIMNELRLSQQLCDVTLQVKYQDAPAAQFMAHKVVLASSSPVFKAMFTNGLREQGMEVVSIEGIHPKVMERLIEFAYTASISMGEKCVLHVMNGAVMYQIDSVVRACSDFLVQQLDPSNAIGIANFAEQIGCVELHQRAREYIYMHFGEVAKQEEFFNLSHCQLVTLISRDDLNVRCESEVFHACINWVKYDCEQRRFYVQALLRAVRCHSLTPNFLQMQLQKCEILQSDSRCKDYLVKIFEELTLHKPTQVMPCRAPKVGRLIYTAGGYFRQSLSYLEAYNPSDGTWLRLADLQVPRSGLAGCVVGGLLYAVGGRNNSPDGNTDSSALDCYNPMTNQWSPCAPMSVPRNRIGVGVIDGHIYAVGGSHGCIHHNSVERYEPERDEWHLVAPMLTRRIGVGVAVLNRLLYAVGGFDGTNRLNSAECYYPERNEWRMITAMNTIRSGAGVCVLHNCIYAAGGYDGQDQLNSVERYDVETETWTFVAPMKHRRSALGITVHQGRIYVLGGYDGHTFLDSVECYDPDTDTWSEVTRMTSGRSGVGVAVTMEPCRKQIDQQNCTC

For data set [1], the target named is Keap1/Nrf2 (Homo sapiens) (UniProt Q16236+Q14145). As to conditions: HRMC, time 18.0 hrs.
Data set [2] can be described thus: Apparent permeability in human Caco-2 cells incubated for 2 hrs by LC/MS analysis.
Data set [3] is described as follows: Metabolic stability in human liver microsomes assessed as compound remaining at 5 uM measured upto 60 mins. A general note: Microsomes from liver hold many membrane-bound enzymes, among them those of drug oxidation.
The nature of data set [4]: in vivo. As to conditions: CD(SD), rat, iv, 0.1 mg/kg.
A short description of data set [5]: in vivo. The note with it: CD(SD), rat, iv, 0.1 mg/kg. The source holds these as a separate data set.
Data set [6] in a line: in vivo. The note with it: CD(SD), rat, iv, 0.1 mg/kg. The source holds these as a separate data set.
Data set [7] can be described thus: in vivo. The note with it: CD(SD), rat, iv, 0.1 mg/kg. The source holds these as a separate data set.
Data set [8] is described as follows: in vivo. The note with it: CD(SD), rat, iv, 0.1 mg/kg. This is another data set of the same source.
Data set [9] is described as follows: in vivo. As to conditions: CD(SD), rat, po, 1 mg/kg.
Data set [10] in a line: in vivo. As to conditions: CD(SD), rat, po, 1 mg/kg. The source holds these as a separate data set.
Data set [11] is described as follows: in vivo. The note with it: CD(SD), rat, po, 1 mg/kg. The source holds these as a separate data set.
Data set [12] in a line: in vivo. As to conditions: CD(SD), rat, po, 1 mg/kg. The source holds these as a separate data set.
A short description of data set [13]: in vivo. As to conditions: CD(SD), rat, po, 1 mg/kg. The source holds these as a separate data set.
Data set [14] in a line: in vivo. As to conditions: CD(SD), rat, po, 1 mg/kg. The source holds these as a separate data set.
Data set [15] in a line: physchem. The note with it: FaSSIF, pH 6.5.
The nature of data set [16]: physchem. The note with it: FeSSIF, pH 5.
Data set [17] can be described thus: in vitro. The note with it: human, plasma.
Data set [18] in a line: in vitro. The note with it: rat, plasma.
Data set [19] can be described thus: in vitro. As to conditions: rat, liver microsomes.
Data set [20] can be described thus: in vivo. As to conditions: Wistar, rat, plasma, po, 0.1 mg/kg.
A short description of data set [21]: in vivo. The note with it: Wistar, rat, kidney, po, 0.1 mg/kg.
Data set [22] in a line: in vivo. The note with it: Wistar, rat, plasma, po, 0.3 mg/kg.
Data set [23] is described as follows: in vivo. As to conditions: Wistar, rat, kidney, po, 0.3 mg/kg.
Data set [24] can be described thus: in vivo. The note with it: Wistar, rat, plasma, po, 1 mg/kg.
Data set [25] in a line: in vivo. As to conditions: Wistar, rat, kidney, po, 1 mg/kg.
Data set [26] is described as follows: in vivo. As to conditions: Wistar, rat, plasma, po, 3 mg/kg.
The nature of data set [27]: in vivo. The note with it: Wistar, rat, kidney, po, 3 mg/kg.

Each structure is given as a SMILES string. Converted amounts (≈) assume the structure as drawn.

Molecule `Cc1ccc([C@@H](NC(=O)Cc2ccc(Cc3cc(C)ccn3)cc2)[C@@H](C)C(=O)O)cc1.Cl` showed a CD in data set [1] of 2.6 µM.
The same measure, in the same setting: the same measure for `Cc1ccc([C@@H](NC(=O)Cc2ccc(Cc3cccc(C)n3)cc2)[C@@H](C)C(=O)O)cc1.Cl`: 2.9 µM; for `CCCOc1cc([C@@H](NC(=O)Cc2ccc(C)cc2)[C@@H](C)C(=O)O)ccc1C`: 24 µM; for `Cc1ccc([C@@H](NC(=O)Cc2ccc(Cn3ccccc3=O)cc2)[C@@H](C)C(=O)O)cc1`: 47 µM.
The same measure, in the same setting: the same measure for `Cc1ccc([C@@H](NC(=O)Cc2ccc(Cn3cccn3)cc2)[C@@H](C)C(=O)O)cc1`: 7.6 µM.
On the same count and under the same terms, the same measure for `Cc1ccc(CC(=O)N[C@H](c2ccc(C)c(OCC(C)C)c2)[C@@H](C)C(=O)O)cc1`: 17 µM; for `Cc1ccc(CC(=O)N[C@H](c2ccc(C)c(OCC(C)(C)C#N)c2)[C@@H](C)C(=O)O)cc1`: 1.2 µM; for `Cc1ccc([C@@H](NC(=O)Cc2ccc(Cc3ccccn3)cc2)[C@@H](C)C(=O)O)cc1.Cl`: 2.5 µM.
In data set [1], `Cc1ccc(CC(=O)N[C@H](c2ccc(C)c(OCC3CCCCC3)c2)[C@@H](C)C(=O)O)cc1` returned a CD of 13 µM.
A word on the Papp: it is a coefficient for how fast a substance crosses the barrier. The share remaining is the share of the starting amount still present when the sample was taken. What is called half-life is the time in which the quantity being followed falls by half. Lower therefore signals rapid decline. What is called clearance is a measure of how efficiently the substance is removed, as volume per time. A low value points to inefficient removal. As a reminder, the Vd is a proportionality between amount in the body and measured concentration, not a real space. Low readings indicate little distribution into tissue, high ones wide distribution into tissue. As a reminder, the AUC is the area under the concentration-time curve, a measure of exposure. Broadly, the MRT is a mean duration of stay, worked out from the concentration-time curve. By Tmax is commonly meant the time from dosing to the highest level. As a reminder, the Cmax is the maximum level reached in the sampled fluid or tissue. The term bioavailability denotes dose-corrected exposure relative to a reference, in per cent. Higher therefore signals good availability. Broadly, the solubility is how much of the substance goes into solution per volume. High values mean much dissolved substance, low ones little dissolved substance. As usually defined, the fraction unbound is free concentration divided by total concentration. On to `Cc1ccc([C@@H](NC(=O)[C@@H](F)c2ccc(Cl)cc2)[C@@H](C)C(=O)O)cc1OCC(C)(C)C#N`, for which the Papp at 2 h in data set [2] amounted to 2.7 ×10⁻⁶ cm/s. Moreover, the fraction remaining at 1 h, 5 µM in [3] amounted to 96%; in the data set “in vitro [19]”, 97%. Moreover, the figures for the half-life at 25 h in “in vivo [4]” and in “in vivo [11]” were 5.4 h and 7.3 h, respectively. Moreover, the clearance at 25 h in the data set “in vivo [5]” is 0.85 mL/min/kg. Also, the Vd at 25 h in “in vivo [6]” stood at 0.26 L/kg. Besides, the AUC at 25 h was 4.3 µM·h in “in vivo [7]” and 24 µM·h in “in vivo [12]”. The MRT at 25 h was determined as 5 h in the data set “in vivo [8]” and 9.3 h in “in vivo [13]”. Moreover, the Tmax at 25 h in “in vivo [9]” was found to be 0.8 h. Also, in the data set “in vivo [10]”, the Cmax at 25 h was 2300 nM. Further, the bioavailability at 25 h in the data set “in vivo [14]” was determined as 55%. The solubility at 4 h turned out to be 470 µM (≈ 217 µg/mL) in “physchem [15]” and 471 µM (≈ 217 µg/mL) in “physchem [16]”. Further, the fraction unbound in the data set “in vitro [17]” was 0.002; in the data set “in vitro [18]”, 0.001.
In turn, `COc1cccnc1Cc1ccc(CC(=O)N[C@H](c2ccc(C)cc2)[C@@H](C)C(=O)O)cc1.Cl` had a CD in [1] of 0.68 µM.
Still for that read-out and setting: the same measure for `CCOc1cccnc1Cc1ccc(CC(=O)N[C@H](c2ccc(C)cc2)[C@@H](C)C(=O)O)cc1`: 0.21 µM.
The molecule `Cc1ccc(CC(=O)N[C@H](c2ccc(C)c(OCC3(C#N)CC3)c2)[C@@H](C)C(=O)O)cc1` registered a CD in data set [1] of 1.2 µM.
The same measure, in the same setting: the same measure for `Cc1ccc([C@@H](NC(=O)Cc2ccc(Cc3ccc(C)cn3)cc2)[C@@H](C)C(=O)O)cc1.Cl`: 2.2 µM.
`CCOc1cccnc1Cc1ccc([C@H](F)C(=O)N[C@H](c2ccc(C)cc2)[C@@H](C)C(=O)O)cc1`: the Papp at 2 h in [2] stood at 14 ×10⁻⁶ cm/s. The fraction remaining at 1 h, 5 µM was 89% in data set [3] and 71% in the data set “in vitro [19]”. Also, the half-life at 25 h in “in vivo [4]” was 2.4 h; in the data set “in vivo [11]”, 4.1 h. In “in vivo [5]”, this molecule had a clearance at 25 h of 14 mL/min/kg. For the same molecule, the Vd at 25 h in the data set “in vivo [6]” worked out at 2.4 L/kg. Moreover, the AUC at 25 h turned out to be 0.26 µM·h in “in vivo [7]” and 1.1 µM·h in the data set “in vivo [12]”. The MRT at 25 h in “in vivo [8]” amounted to 2.9 h; in “in vivo [13]”, 6.4 h. Also, the Tmax at 25 h in the data set “in vivo [9]” amounted to 3 h. The same molecule came in with a Cmax at 25 h in “in vivo [10]” of 98 nM. In addition, the bioavailability at 25 h in the data set “in vivo [14]” turned out to be 42%. For the same molecule, the concentration at 6 h in “in vivo [20]” amounted to 5 nM; in “in vivo [21]” it was 64 nM; in the data set “in vivo [22]”, 19 nM; in “in vivo [23]” it was 190 nM; in the data set “in vivo [24]” it was 56 nM; in “in vivo [25]” it was 400 nM. Besides, the concentration at 6 h in “in vivo [26]” came out at 150 nM; in the data set “in vivo [27]”, 730 nM. The solubility at 4 h is at least 475 µM in “physchem [15]” and 380 µM (≈ 177 µg/mL) in “physchem [16]”. Moreover, the fraction unbound in “in vitro [17]” was 0.038; in “in vitro [18]”, 0.01.
`Cc1ccc(CC(=O)N[C@H](c2ccc(C)c(OCC3CCCC3)c2)[C@@H](C)C(=O)O)cc1` gave a CD in [1] of 12 µM.
Still for that read-out and setting: in the case of `Cc1ccc(CC(=O)N[C@H](c2ccc(C)cc2)[C@@H](C)C(=O)O)cc1` it was over 100 µM; in that of `Cc1ccc([C@@H](NC(=O)Cc2ccc(Cl)cc2)[C@@H](C)C(=O)O)cc1OCC(C)(C)C#N`, 1.8 µM.
On the same count and under the same terms, the same measure for `Cc1ccc(CC(=O)N[C@H](c2ccc(C)c(OCC(C)(C)F)c2)[C@@H](C)C(=O)O)cc1`: 1.3 µM; for `Cc1ccc([C@@H](NC(=O)Cc2ccc(Cc3ncccc3C)cc2)[C@@H](C)C(=O)O)cc1.Cl`: 1.1 µM.
`Cc1ccc(CC(=O)N[C@H](c2ccc(C)c(OCC(C)(C)O)c2)[C@@H](C)C(=O)O)cc1` registered a CD in data set [1] of 31 µM.
With `Cc1ccc([C@H](F)C(=O)N[C@H](c2ccc(C)c(OCC3(C#N)CC3)c2)[C@@H](C)C(=O)O)cc1`, in data set [2], the Papp at 2 h is 1 ×10⁻⁶ cm/s. In addition, the share remaining at 1 h, 5 µM in data set [3] is 65%; in the data set “in vitro [19]”, 77%. Further, the half-life at 25 h in “in vivo [4]” is 4.3 h; in the data set “in vivo [11]”, 4.4 h. Moreover, in the data set “in vivo [5]”, the clearance at 25 h was 1.67 mL/min/kg. The molecule further returned a Vd at 25 h in “in vivo [6]” of 0.2 L/kg. For the same molecule, the AUC at 25 h was 2.4 µM·h in the data set “in vivo [7]” and 18 µM·h in “in vivo [12]”. Further, the MRT at 25 h in “in vivo [8]” was found to be 2.1 h; in “in vivo [13]”, 5.1 h. Besides, the Tmax at 25 h in “in vivo [9]” is 1 h. In addition, the Cmax at 25 h in the data set “in vivo [10]” amounted to 3100 nM. Moreover, in “in vivo [14]”, the bioavailability at 25 h is 74%. For the same molecule, the concentration at 6 h is 16 nM in “in vivo [20]”; 26 nM in the data set “in vivo [21]”; 51 nM in the data set “in vivo [22]”; 82 nM in the data set “in vivo [23]”; 130 nM in the data set “in vivo [24]”; 160 nM in the data set “in vivo [25]”. Besides, the values for the concentration at 6 h in “in vivo [26]” and in “in vivo [27]” were 370 nM and 490 nM, respectively. Also, the solubility at 4 h in “physchem [15]” is at least 475 µM; in “physchem [16]” it was 62 µM (≈ 27.2 µg/mL). For the same molecule, the fraction unbound in the data set “in vitro [17]” is under 0.001; in “in vitro [18]”, 0.003.
In the case of `Cc1ccc([C@@H](NC(=O)[C@@H](F)c2ccc3c(c2)CCCC3)[C@@H](C)C(=O)O)cc1`, the CD in data set [1] was 2 µM.
On the same count and under the same terms, the same measure for `Cc1ccc([C@@H](NC(=O)Cc2ccc(Cc3ccccc3)cc2)[C@@H](C)C(=O)O)cc1`: 33 µM; for `Cc1ccc([C@@H](NC(=O)Cc2ccc(CC3CCCCC3)cc2)[C@@H](C)C(=O)O)cc1`: 45 µM.
